In US10195311B2, “Local delivery of drugs from self assembled coatings” (Interface Biologics, Inc., priority 2009, dated 2019):

Details: rat, in vivo, 15 mg

Dansyl Oligofluoro [Compound 3]
T1/2(e), T1/2(Total): 15.7 h
